Reference: PMC8659078, “A Validated HPLC-PDA-HRMS Method to Investigate the Biological Stability and Metabolism of Antiparasitic Triterpenic Esters” (Molecules, 2021)

Assay: Metabolites analysis by HPLC-PDA-HRMS after incubation with male mouse pooled microsomes
Type: in vitro ADME
Conditions: identification level 2

ursolic acid-3-O-phenyl propionate [UA-3-O-PP]
metabolic reaction of detected metabolite (15 µM): Hydrolysis + Hydroxylation + Reduction | metabolic reaction of detected metabolite (150 µM): Hydrolysis + Hydroxylation + Reduction
